# What was measured:
# Type in all cases: in vivo
# [1] = system: Mouse; assay: Anti-methanphethamine activity (neuroleptic activity)
# Protocol: (§1) Measurement of pharmacological activities are conducted in accordance with the procedures described in the following literatures: […]
# [2] = system: Mouse; assay: Anti-tremorine activity (anti-Parkinson activity)
# Protocol: as §1
# [3] = system: Mouse; assay: Inhibitory effect of spontaneous motor activity
# Protocol: (§2) Measurement of pharmacological activities are conducted in accordance with the procedures described in the following literatures:
# 1) Svensson, T. H. et al
# [4] = system: Mouse; assay: Anti-writhing effect (analgetic activity)
# Protocol: as §2
# Proc. Soc. […] Biol, & Med.,
smiles,measurement,setting,value
"Cl.OC1CCN(CCCN2c3ccccc3Sc3ccc(C(F)(F)F)cc32)C1 (centres unmarked) [Compound A, 2-trifluoromethyl-10-[3-(3-hydroxy-pyrrolidino)-propyl]-phenothiazine hydrochloride]",intensity of anti-methanphethamine activity relative to chlorpromazine,[1]; compared with chlorpromazine,4 - 9 times
same,anti-methanphethamine activity relative to fluphenazine,[1]; compared with fluphenazine,about half of those of fluphenazine
same,intensity of anti-methanphethamine (neuroleptic) activity relative to known compound a,[1]; compared with known compound a,2-4 times
same,anti-tremorine activity relative to chlorpromazine,[2]; compared with chlorpromazine,almost equal to that of chlorpromazine
same,intensity of anti-tremorine (anti-Parkinson) activity relative to fluphenazine,[2]; compared with fluphenazine,3 - 5 times
same,intensity of spontaneous motor activity inhibition relative to chlorpromazine,[3]; compared with chlorpromazine,4 - 9 times
same,inhibitory effect of spontaneous motor activity relative to fluphenazine,[3]; compared with fluphenazine,about half of those of fluphenazine
same,central nervous depressant activity relative to known compound a,"[3]; overall statement from the table, compared with known compound a",more intense than that of the known compound a
same,intensity of anti-writhing activity relative to chlorpromazine,[4]; compared with chlorpromazine,4 - 9 times
same,intensity of anti-writhing activity relative to fluphenazine,[4]; compared with fluphenazine,3 - 5 times
same,intensity of anti-writhing (analgetic) activity relative to known compound a,[4]; compared with known compound a,2-4 times

# Source: patent US4139632A, “Psychotropic 2-trifluoromethyl-10-[3-(3-hydroxy-pyrrolidino)-propyl]-phenothiazine compounds” (Eisai Co., Ltd., priority 1975, dated 1979)
